The data set can be described thus: in vivo. To be noted: mouse, po.

As for `CCOC(=O)CSCCC1NC(C(=O)O)CS1` (stereo not shown) [Compound No. 8, 2-[(Ethoxycarbonylmethylthio)-ethyl] thiazolidine 4-carboxylate of diisopropylamine], the LD50 (as a rule, the dose at which mortality reaches 50%) was 4000 mg/kg.

The record behind these values is patent US4032534A, “Certain 2-(2-thioethyl)thiazolidine-4-carboxylic acids” (Ferlus-Chimie S.A., priority 1973, dated 1977).
